Yeast mating assay 1: variants of the scFv Ab-14

Antigen: PDVDLGDISGINAS, a 14-residue peptide of the SARS-CoV-2 spike HR2 region.

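Variants in AAYL50 differ from the parent at up to three CDR positions; double and triple changes were sampled at random. In AlphaSeq, yeast of one mating type display the scFv and yeast of the other type display the target. Pairs that bind mate more often; barcode pairs of the diploids are counted by sequencing. Each replicate has its own calibration line, from reference interactions of the BCL2 family. Each pool was mated in three replicate cultures.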

The variants keep the heavy chain, the linker and the frameworks of Ab-14 (scFv order VH, a 15-residue (Gly4Ser)3 linker, VL).
VH: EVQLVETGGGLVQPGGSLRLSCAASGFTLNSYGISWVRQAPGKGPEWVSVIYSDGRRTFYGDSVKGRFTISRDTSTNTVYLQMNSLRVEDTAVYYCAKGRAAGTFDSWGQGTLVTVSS
VL: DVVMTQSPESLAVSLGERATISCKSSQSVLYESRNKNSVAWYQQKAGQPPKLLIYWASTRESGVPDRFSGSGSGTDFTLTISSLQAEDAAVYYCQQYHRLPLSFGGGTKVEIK

Substitutions are numbered in sequence along the VL above, starting at 1 (not Kabat). This list gathers variants with a substitution at V29 (VL, numbered from residue 1). The Kd shown is the geometric mean over detected replicates; a lower Kd is a better binder. Where no diploid with the target was found in any replicate, the entry reads "nd": below detection, most likely a poor binder, though not proof of it. Parent in this assay: reference entry 4.4 nM, copy in this library 48 nM. Background: pairings of library AAYL50 with three empty control strains gave a value in 18% of cases (median 15 µM, 5th percentile 970 nM). Values in that range, when seen in few replicates, are hard to tell from nonspecific mating. For each scFv, signals with the empty controls are counted beside the result.

changes	Kd	detected	control signals
S25N V29M S58P	33 µM	2/3	1/9
V29N S38H A57C	16 µM	2/3	0/9
V29M A40Q H98C	5.4 µM	1/3	2/9
V29K	44 nM	3/3	0/9
V29E E61I R99H	1.6 nM	3/3	0/9
V29R W56C R99G	760 nM	3/3	2/9
V29D S62D P101M	nd	0/3	0/9
S26Y V29Y S58L	nd	0/3	0/9
V29Q Q95M	770 nM	1/3	6/9
S26T V29K L100N	30 µM	1/3	3/9
V29K Y31D	6.3 nM	3/3	1/9
K24T V29L S33R	120 nM	3/3	1/9
V29P S38E S58D	530 nM	3/3	2/9
V29M N35Q A40E	nd	0/3	1/9
V29E R34V P101H	14 nM	3/3	3/9
S25Y V29Y W56R	1.8 nM	3/3	0/9
V29D S62Q	2.6 nM	3/3	3/9
V29L S33I R34Q	420 nM	3/3	1/9
Q27A V29C E32R	95 nM	3/3	1/9
S28W V29G S58G	180 nM	3/3	3/9
S28N V29H	21 nM	3/3	3/9
S26C V29M	200 nM	3/3	0/9
K24S S26D V29A	7.2 nM	3/3	2/9
V29L T59W L100K	9.8 nM	3/3	0/9
Q27N V29H	4.5 nM	3/3	1/9
V29P S33D A40R	130 µM	1/3	3/9
V29Q R34C	20 nM	3/3	4/9
V29N R34Y T59W	280 nM	3/3	0/9
V29L Y31T S33T	2.8 nM	3/3	0/9
K24Y V29A N35D	68 nM	3/3	3/9
S25T V29R Q95D	nd	0/3	1/9
V29P E61G L102A	100 nM	3/3	1/9
V29R Y97F L100R	nd	0/3	2/9
S28M V29M S33R	75 nM	3/3	1/9
V29G K36W V39F	nd	0/3	1/9
V29L N35A E61L	5.9 nM	3/3	2/9
S25M V29H E32N	2.1 nM	3/3	4/9
V29K A57N L100N	10 µM	2/3	6/9
S25W V29K E32Q	160 µM	1/3	2/9
V29P N37G H98A	34 nM	3/3	0/9
V29Q L30N E32Y	nd	0/3	5/9
V29R E32Y Q95R	610 nM	1/3	0/9
V29Q R34S A40F	nd	0/3	0/9
V29K N35T Q95R	10 µM	1/3	1/9
V29E	9.6 nM	3/3	4/9
S28W V29W P101Y	nd	0/3	0/9
V29F S62L S103I	61 nM	3/3	1/9
V29G N37Q S62M	nd	0/3	0/9
V29F R60S R99L	nd	0/3	1/9
V29N Y31L Q95G	400 nM	3/3	2/9
V29K H98K P101Y	9.5 µM	2/3	1/9
S28G V29M	37 nM	3/3	2/9
V29C H98G P101I	230 µM	2/3	4/9
V29N N37H R99Y	1.1 µM	2/3	0/9
V29M A57W H98R	nd	0/3	0/9
K24T V29F K36A	52 nM	3/3	4/9
S26K V29P A40S	2.1 mM	1/3	3/9
Q27D V29Q R34M	2.3 nM	3/3	3/9
V29Q A40Q H98F	nd	0/3	0/9
S28V V29P A57C	150 µM	2/3	0/9
V29P R60W	nd	0/3	2/9
V29L E32A S58I	250 nM	3/3	3/9
S25A V29K T59G	5.8 µM	1/3	1/9
V29C N35T R60I	nd	0/3	0/9

Picked from the list: the 10 lowest averages where every replicate gave a value.

changes	Kd	detected	control signals
V29E E61I R99H	1.6 nM	3/3	0/9
S25Y V29Y W56R	1.8 nM	3/3	0/9
S25M V29H E32N	2.1 nM	3/3	4/9
Q27D V29Q R34M	2.3 nM	3/3	3/9
V29D S62Q	2.6 nM	3/3	3/9
V29L Y31T S33T	2.8 nM	3/3	0/9
Q27N V29H	4.5 nM	3/3	1/9
V29L N35A E61L	5.9 nM	3/3	2/9
V29K Y31D	6.3 nM	3/3	1/9
K24S S26D V29A	7.2 nM	3/3	2/9

From the AlphaSeq antibody data of Engelhart et al. 2022 (doi:10.1038/s41597-022-01779-4), copy in the FLAb collection.